Only a part is listed here, and it is no random draw. Some results for these compounds are left out of this collection, so the calls shown say nothing about other tests. Calls of active or inactive are those of the source.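 Rule for the calls: active = inhibition reaching at least a set limit at 20 µM in the primary screen (cut at about 59% in these data); inactive = the rest.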

The experiment has as its system glucose-6-phosphate dehydrogenase-6-phosphogluconolactonase (Plasmodium falciparum 3D7). Put plainly: inhibition of malaria parasite G6PD (PfGluPho) – biochemical, fluorescence intensity, uHTS, primary screen (AID 504690).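 Note: 0% = DMSO wells with substrate and 100% = DMSO wells lacking glucose-6-phosphate.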 Conditions: PfGluPho enzyme, NADPH resazurin-diaphorase fluorescence; at 20 µM; stronger effect = higher value. On the technique in general: Resazurin is reduced to fluorescent resorufin, in cell work by metabolically active cells.
Broadly, the inhibition is the change of the read-out against control, counted positive when it falls. Regarding `COc1ccc(Br)c(C(=O)NCC2(N3CCCCC3)CCCCC2)c1`, the inhibition is inactive: -8.77%.

As for `C=C(C)C#CC(O)(C(=O)OC1CCN(C)CC1)c1ccccc1` (stereo unspecified), the inhibition was inactive: -4.83%.

Turning to `CN(C)c1cccc(C(=O)NCC2(N(C)C)CCCCC2)c1`, the inhibition is inactive: -3.78%.

Consider `CC(C)Oc1ccc(C(=O)NCC2(N(C)C)CCCCC2)cc1`, for which the inhibition was inactive: -9.29%.

Consider `O=C(OCCN1CCCC1)C(O)(c1ccccc1)c1ccccc1`, for which the inhibition is inactive: 4.3%.

With `O=C(OC1CN2CCC1CC2)C(CO)(c1ccccc1)c1ccccc1` (stereo unspecified), the inhibition was inactive: -19.6%.

In the case of `COc1cccc(C(=O)NCC2(N3CCCCC3)CCCCC2)c1`, the inhibition was inactive: 5.12%.

`COc1ccc(Cl)cc1C(=O)NCC1(N(C)C)CCCCC1`: the inhibition is inactive: 1.83%.

Turning to `O=C(NCC1(N2CCCCC2)CCCCC1)c1cccc(Cl)c1`, the inhibition is inactive: -23.7%.

For the compound `CN(C)C1(CNC(=O)c2ccc(Br)cc2)CCCCC1`, the inhibition was inactive: -4.95%.

Consider `COc1cc(C(=O)NCC2(N(C)C)CCCCC2)c([N+](=O)[O-])cc1OC`, for which the inhibition is inactive: -1.56%.

In the case of `C=CCN1CCN(CCOC(=O)C(O)(c2ccccc2)c2ccccc2)CC1`, the inhibition was inactive: -14.9%.

As to `O=C(NCC1(N2CCCCC2)CCCCC1)c1cc(F)c(F)cc1Cl`, the inhibition was inactive: 0.44%.

Take `CCN1CCCC(OC(=O)C2(O)c3ccccc3C=Cc3ccccc32)C1` (stereo unspecified): the inhibition was inactive: -2%.

For `Cc1cc(C(=O)NCC2(N3CCCCC3)CCCCC2)ccc1[N+](=O)[O-]`, the inhibition is inactive: 9.65%.

Turning to `O=C(NCC1(N2CCCCC2)CCCCC1)c1cccc(Br)c1`, the inhibition was inactive: -11.7%.

With `COc1ccc(C(=O)NCC2(N(C)C)CCCCC2)cc1`, the inhibition was inactive: -3.22%.

Regarding `Cc1ccccc1C(=O)NCC1(N2CCCCC2)CCCCC1`, the inhibition was inactive: 3.84%.

As to `CN(C)c1ccc(C(=O)NCC2(N(C)C)CCCCC2)cc1`, the inhibition is inactive: 4.75%.

Turning to `CN(C)C1CCCC1OC(=O)C(O)(c1ccccc1)c1ccccc1` (stereo unspecified), the inhibition was inactive: 8.24%.

On to `CC(C)N1C(=O)CC2(CCN(CCOC(=O)C(O)(c3ccccc3)c3ccccc3)CC2)C1=O`, for which the inhibition was inactive: 5.56%.

Turning to `CCN(CC)CC(C)C(C)OC(=O)C(O)(c1ccccc1)c1ccccc1` (stereo unspecified), the inhibition is inactive: -0.11%.

Consider `COc1cc(SC)ccc1C(=O)NCC1(N(C)C)CCCCC1`, for which the inhibition is inactive: 0.7%.

Take `Cc1ccc(C(=O)NCC2(N3CCCCC3)CCCCC2)cc1`: the inhibition was inactive: -19%.

Take `O=C(NCC1(N2CCCCC2)CCCCC1)c1cc([N+](=O)[O-])ccc1Cl`: the inhibition was inactive: 12.1%.

For `CN1[C@@H]2CC[C@H]1CC(OC(=O)C(O)(c1ccccc1)c1ccccc1)C2` (stereo partly specified), the inhibition is inactive: -7.96%.

Source of the values: PubChem BioAssay AID504690 (Sanford-Burnham Center for Chemical Genomics, 2011).
